# scFv variants of Ab-14 (heavy chain) against a SARS-CoV-2 spike peptide

From the AlphaSeq antibody data of Engelhart et al. 2022 (doi:10.1038/s41597-022-01779-4), copy in the FLAb collection.

Target: peptide PDVDLGDISGINAS, taken from heptad repeat 2 (HR2) of SARS-CoV-2 spike.

The variants keep the light chain, the linker and the frameworks of Ab-14 (scFv order VH, a (GGGGS)3 linker, VL).
VH: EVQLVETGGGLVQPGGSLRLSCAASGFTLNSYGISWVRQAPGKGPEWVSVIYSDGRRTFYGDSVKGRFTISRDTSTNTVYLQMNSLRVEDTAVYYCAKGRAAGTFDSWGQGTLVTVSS
VL: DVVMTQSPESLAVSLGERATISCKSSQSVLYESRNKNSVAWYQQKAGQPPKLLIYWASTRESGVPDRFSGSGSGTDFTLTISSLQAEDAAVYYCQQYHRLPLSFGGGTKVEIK

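The starting antibody came from a phage panning campaign against this peptide. In library AAYL49, one, two or three CDR residues were substituted; doubles and triples were drawn at random. The scFvs were displayed on barcoded MATa yeast, the peptide on MATalpha yeast. Mating (16 h, 30 °C) was followed by selection of diploids and sequencing of their barcodes. Each replicate has its own calibration line, from reference interactions of the BCL2 family. There are three technical replicates.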

Positions count from residue 1 of the parent VH; G61S puts S in place of G. This list gathers variants with a substitution at G61 (VH, numbered from residue 1). Values are log10 of the apparent Kd in nM; lower means stronger binding. The mean shown is taken over the replicates in which the pair was detected. Where no diploid with the target was found in any replicate, the entry reads "nd": below detection, most likely a poor binder, though not proof of it. The list is sorted by this average, lowest first, undetected variants last. In this assay the parent's reference entry averaged 0.65; its copy inside this library read 4.11 (one replicate of three).

| changes | mean log10 Kd (nM) | detected | control signals |
|---|---|---|---|
| G61S/A102G | -0.24 | 3 of 3 | 0 of 9 |
| G61E | 0.45 | 3 of 3 | 2 of 9 |
| G61S/T104I/D106Y | 0.68 | 3 of 3 | 2 of 9 |
| N30Y/G61T | 0.72 | 3 of 3 | 0 of 9 |
| G61V | 0.87 | 3 of 3 | 1 of 9 |
| F27A/G61L | 1.17 | 3 of 3 | 2 of 9 |
| F59Q/G61A/F105L | 1.23 | 3 of 3 | 1 of 9 |
| G61Y/D62E/A101T | 1.45 | 3 of 3 | 0 of 9 |
| G61P | 1.67 | 3 of 3 | 4 of 9 |
| G26Y/G61D/T104S | 2.04 | 3 of 3 | 2 of 9 |
| R57K/G61Q/K65Q | 2.45 | 3 of 3 | 3 of 9 |
| S31D/I34P/G61F | 2.89 | 1 of 3 | 0 of 9 |
| R56Q/G61R/S63R | 2.90 | 3 of 3 | 0 of 9 |
| S35L/Y60I/G61R | 2.94 | 1 of 3 | 0 of 9 |
| N30T/D54S/G61T | 2.94 | 1 of 3 | 1 of 9 |
| F59W/Y60Q/G61W | 3.11 | 1 of 3 | 0 of 9 |
| Y32H/G61M/A102M | 3.28 | 1 of 3 | 1 of 9 |
| G26K/I51Y/G61D | 3.63 | 2 of 3 | 3 of 9 |
| G61C/V64H | 3.65 | 2 of 3 | 4 of 9 |
| V50Y/G61N/F105A | 4.06 | 2 of 3 | 1 of 9 |
| N30F/R56D/G61Y | 4.19 | 1 of 3 | 2 of 9 |
| L29K/Y60L/G61H | 4.22 | 2 of 3 | 4 of 9 |
| T28S/G55R/G61A | 4.29 | 1 of 3 | 2 of 9 |
| G61D/T104F/S107G | 4.34 | 3 of 3 | 3 of 9 |
| F27N/G55A/G61M | 4.42 | 2 of 3 | 6 of 9 |
| N30H/F59Y/G61N | 4.43 | 2 of 3 | 0 of 9 |
| G55N/G61C/S107Y | 4.51 | 2 of 3 | 0 of 9 |
| Y32D/D54C/G61C | 4.52 | 1 of 3 | 1 of 9 |
| D54N/G61W/G99R | 4.78 | 1 of 3 | 4 of 9 |
| I34T/G55D/G61T | 4.94 | 3 of 3 | 4 of 9 |
| G26I/G61T/F105Q | 4.95 | 1 of 3 | 1 of 9 |
| G61W/D62Q/A101Q | 4.96 | 3 of 3 | 7 of 9 |
| I51F/G61H/V64H | 5.03 | 1 of 3 | 1 of 9 |
| R56I/G61L/D106F | 5.81 | 1 of 3 | 4 of 9 |
| R57V/Y60K/G61K | 5.82 | 1 of 3 | 2 of 9 |
| G55C/G61C/G103W | nd | 0 of 3 | 0 of 9 |
| F27D/I34E/G61M | nd | 0 of 3 | 0 of 9 |
| I51D/G61I/F105T | nd | 0 of 3 | 0 of 9 |
| L29W/I34N/G61Y | nd | 0 of 3 | 0 of 9 |
| Y32W/G61W | nd | 0 of 3 | 3 of 9 |
| S53C/G61K/A102N | nd | 0 of 3 | 1 of 9 |
| L29C/F59L/G61Q | nd | 0 of 3 | 0 of 9 |
| G33K/F59V/G61V | nd | 0 of 3 | 0 of 9 |
| G33S/S53E/G61P | nd | 0 of 3 | 2 of 9 |
| G55T/G61W/A101Y | nd | 0 of 3 | 0 of 9 |
| G61Y/F105T/D106C | nd | 0 of 3 | 0 of 9 |
| G55W/G61C/S63Y | nd | 0 of 3 | 0 of 9 |
| L29V/V50D/G61P | nd | 0 of 3 | 1 of 9 |
| S53T/D54S/G61Q | nd | 0 of 3 | 0 of 9 |
| Y32M/D54T/G61P | nd | 0 of 3 | 0 of 9 |
| N30W/I34N/G61R | nd | 0 of 3 | 0 of 9 |
| T58W/G61R/V64N | nd | 0 of 3 | 0 of 9 |
| F27H/S35D/G61W | nd | 0 of 3 | 0 of 9 |

Picked from the list: the 7 lowest averages where every replicate gave a value.

{"changes": "G61S/A102G", "mean log10 Kd (nM)": "-0.24", "detected": "3 of 3", "control signals": "0 of 9"}
{"changes": "G61E", "mean log10 Kd (nM)": "0.45", "detected": "3 of 3", "control signals": "2 of 9"}
{"changes": "G61S/T104I/D106Y", "mean log10 Kd (nM)": "0.68", "detected": "3 of 3", "control signals": "2 of 9"}
{"changes": "N30Y/G61T", "mean log10 Kd (nM)": "0.72", "detected": "3 of 3", "control signals": "0 of 9"}
{"changes": "G61V", "mean log10 Kd (nM)": "0.87", "detected": "3 of 3", "control signals": "1 of 9"}
{"changes": "F27A/G61L", "mean log10 Kd (nM)": "1.17", "detected": "3 of 3", "control signals": "2 of 9"}
{"changes": "F59Q/G61A/F105L", "mean log10 Kd (nM)": "1.23", "detected": "3 of 3", "control signals": "1 of 9"}

Nonspecific signal, from three strains lacking the peptide, appeared in 15% of pairings of library AAYL49, centred on 4.06 (5% of these signals below 2.83); values are not corrected for it. Also given: how often the same scFv was detected with the empty control strains.